Results on two compounds are retold here after patent US20150111246A1, “SITE-SPECIFIC ENZYMATIC MODIFICATION OF EXENDINS AND ANALOGS THEREOF” (priority 2012, published 2015).

Test [1] addresses T1, GLP-1 receptor (Rattus norvegicus, UniProt P32301).
T1 construct: endogenous in cells; host or cells: RINm5F cell membranes
T1 sequence (P32301 22-463): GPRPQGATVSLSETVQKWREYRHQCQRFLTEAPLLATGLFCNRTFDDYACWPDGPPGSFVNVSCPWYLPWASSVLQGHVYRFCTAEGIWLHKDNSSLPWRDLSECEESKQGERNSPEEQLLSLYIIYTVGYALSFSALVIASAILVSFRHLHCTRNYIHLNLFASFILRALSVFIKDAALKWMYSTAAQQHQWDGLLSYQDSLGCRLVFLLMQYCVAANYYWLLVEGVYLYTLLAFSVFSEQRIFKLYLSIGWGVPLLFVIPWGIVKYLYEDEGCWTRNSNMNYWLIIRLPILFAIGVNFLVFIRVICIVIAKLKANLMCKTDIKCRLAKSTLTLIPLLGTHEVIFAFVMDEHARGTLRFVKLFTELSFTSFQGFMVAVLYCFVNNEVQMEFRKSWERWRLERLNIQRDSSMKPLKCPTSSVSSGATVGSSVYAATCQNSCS
The experiment in a line: GLP-1 receptor binding displacement assay. As for the experimental part:
GLP-1 receptor binding and functional assays: GLP-1 receptor binding activity and affinity may be measured in any number of known methods. […] Reaction mixtures are filtered through glass filter pads presoaked with 0.3% PEI solution and rinsed with ice-cold phosphate buffered saline. Bound counts are determined using a scintillation counter. Binding affinities can be calculated using GraphPad Prism® software (GraphPad Software, Inc., San Diego, Calif.).

Test [2] has as its target GLP-1 receptor (UniProt P32301). The experiment in a line: cell-based or functional assay.

For the compound `CC[C@H](C)[C@H](NC(=O)[C@H](Cc1ccccc1)NC(=O)[C@H](CC(C)C)NC(=O)[C@H](CCCNC(=N)N)NC(=O)[C@@H](NC(=O)[C@H](C)NC(=O)[C@H](CCC(=O)O)NC(=O)[C@H](CCC(=O)O)NC(=O)[C@H](CCC(=O)O)NC(=O)[C@H](CCSC)NC(=O)[C@H](CCC(=O)NCCCCCNC(=O)CCCC[C@@H]1SC[C@@H]2NC(=O)N[C@@H]21)NC(=O)[C@H](CCCCN)NC(=O)[C@H](CO)NC(=O)[C@H](CC(C)C)NC(=O)[C@H](CC(=O)O)NC(=O)[C@H](CO)NC(=O)[C@@H](NC(=O)[C@H](Cc1ccccc1)NC(=O)[C@@H](NC(=O)CNC(=O)[C@H](CCC(=O)O)NC(=O)CNC(=O)[C@@H](N)Cc1c[nH]cn1)[C@@H](C)O)[C@@H](C)O)C(C)C)C(=O)N[C@@H](CCC(=O)O)C(=O)N[C@@H](Cc1c[nH]c2ccccc12)C(=O)N[C@@H](CC(C)C)C(=O)N[C@@H](CCCCN)C(=O)N[C@@H](CC(N)=O)C(=O)NCC(=O)NCC(=O)N1CCC[C@H]1C(=O)N[C@@H](CO)C(=O)N[C@@H](CO)C(=O)NCC(=O)N[C@@H](C)C(=O)N1CCC[C@H]1C(=O)N1CCC[C@H]1C(=O)N1CCC[C@H]1C(=O)N[C@@H](CO)C(N)=O`, the IC50 (usually the concentration needed to halve the response being measured) at GLP-1 receptor [1] turned out to be 0.338 nM.
The compound “Exendin-4 with dansyl cadaverine covalently attached at ^13Q (peptide)” displayed an EC50 in the GLP-1 functional assay with GLP-1 receptor [2] of 0.003 nM.
